These results are taken from patent publication US20250325542A1, “INHIBITORS OF ANTIMOCROBIAL RESISTANCE AND METHOS USING SAME” (Baylor College of Medicine, priority 2022, published 2025).

The chains behind the UniProt entries cited, without tags or fusion partners.
UniProt C7C422, whole entry, looked up, species assumed: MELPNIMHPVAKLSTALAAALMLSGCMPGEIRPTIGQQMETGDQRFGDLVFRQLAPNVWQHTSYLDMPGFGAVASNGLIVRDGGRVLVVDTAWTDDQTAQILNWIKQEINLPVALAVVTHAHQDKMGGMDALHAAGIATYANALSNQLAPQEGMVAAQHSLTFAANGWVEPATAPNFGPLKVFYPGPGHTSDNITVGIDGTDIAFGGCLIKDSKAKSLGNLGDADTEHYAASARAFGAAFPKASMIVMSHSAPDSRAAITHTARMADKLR

The assay concerns the target NDM-1 (Klebsiella pneumoniae, UniProt C7C422). As to conditions: read-out: NDM-1 Ki.

Broadly, the Ki is a measure of affinity in units of concentration, obtained from inhibition or displacement.

Consider `CN(C)C(=O)c1ccc(CNCc2ccc(O)c(C(=O)O)c2)s1` [CDD-2350, 5-((((5-(dimethylcarbamoyl)thiophen-2-yl)methyl)amino)methyl)-2-hydroxybenzoic acid], for which the Ki worked out at 125 ± 14 µM.
